In this experiment the target is dopamine transporter (DAT) (Rattus norvegicus, UniProt P23977). Briefly: Dopamine reuptake ([^3H]dopamine uptake) inhibition in rat brain synaptosomes. Particulars: rat caudate synaptosomes, 5 nM [^3H]dopamine.

Sequences of proteins named here, by UniProt entry; tags and fusion partners are left off.
UniProt P23977, whole entry: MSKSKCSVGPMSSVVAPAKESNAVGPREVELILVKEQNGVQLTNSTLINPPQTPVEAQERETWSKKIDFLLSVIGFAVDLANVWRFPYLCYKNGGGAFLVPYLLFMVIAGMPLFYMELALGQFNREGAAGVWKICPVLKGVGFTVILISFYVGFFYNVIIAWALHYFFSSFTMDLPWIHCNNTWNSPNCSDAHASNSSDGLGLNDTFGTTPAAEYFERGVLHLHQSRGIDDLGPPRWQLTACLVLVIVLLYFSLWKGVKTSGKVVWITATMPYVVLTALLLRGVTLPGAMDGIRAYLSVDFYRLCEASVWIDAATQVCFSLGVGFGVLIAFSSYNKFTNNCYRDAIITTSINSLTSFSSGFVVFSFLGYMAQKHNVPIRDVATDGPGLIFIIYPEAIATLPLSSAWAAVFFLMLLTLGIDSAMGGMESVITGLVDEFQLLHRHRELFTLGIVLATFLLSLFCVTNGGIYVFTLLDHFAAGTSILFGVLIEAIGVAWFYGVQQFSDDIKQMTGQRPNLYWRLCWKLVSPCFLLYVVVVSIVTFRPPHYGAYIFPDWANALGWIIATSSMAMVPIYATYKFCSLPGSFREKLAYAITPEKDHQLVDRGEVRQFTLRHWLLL

Molecules are shown by their SMILES.

Usually EC50 stands for the midpoint of the concentration-response curve. On to `Cc1cc2nccn2c(C)c1-c1nc(NCC(c2ccccc2)c2ccccc2)c2ccccc2n1`, for which the “DA Uptake Emax (% I ± SD)” value (maximal inhibition from dose-response fit) was 106 ± 4 % I. For the same molecule, the EC50 (read-out: DA Uptake EC50 (nM ± SD), 15 min, 25° C., three experiments pooled) came out at 543 nM.

For the origin of these results see US9873702B2, “Heterocyclic compounds as biogenic amine transport modulators” (Southern Research Institute, priority 2014, dated 2018).
